{"source": "patent US20130090494A1", "about": "“TETRAKIS[BIS(DIHYDROXYPHOSPHORYL)METHYL]CALIX[4]ARENE OR ITS SODIUM SALT THEREOF AS FIBRIN POLYMERIZATION INHIBITORS” (priority 2010, published 2013)", "key": {"[1]": {"target": "T1, fibrin polymerization (Homo sapiens, UniProt P02671+P02675+P02679)", "T1 sequence (P02671 20-644 isoform P02671-2 limits assumed)": "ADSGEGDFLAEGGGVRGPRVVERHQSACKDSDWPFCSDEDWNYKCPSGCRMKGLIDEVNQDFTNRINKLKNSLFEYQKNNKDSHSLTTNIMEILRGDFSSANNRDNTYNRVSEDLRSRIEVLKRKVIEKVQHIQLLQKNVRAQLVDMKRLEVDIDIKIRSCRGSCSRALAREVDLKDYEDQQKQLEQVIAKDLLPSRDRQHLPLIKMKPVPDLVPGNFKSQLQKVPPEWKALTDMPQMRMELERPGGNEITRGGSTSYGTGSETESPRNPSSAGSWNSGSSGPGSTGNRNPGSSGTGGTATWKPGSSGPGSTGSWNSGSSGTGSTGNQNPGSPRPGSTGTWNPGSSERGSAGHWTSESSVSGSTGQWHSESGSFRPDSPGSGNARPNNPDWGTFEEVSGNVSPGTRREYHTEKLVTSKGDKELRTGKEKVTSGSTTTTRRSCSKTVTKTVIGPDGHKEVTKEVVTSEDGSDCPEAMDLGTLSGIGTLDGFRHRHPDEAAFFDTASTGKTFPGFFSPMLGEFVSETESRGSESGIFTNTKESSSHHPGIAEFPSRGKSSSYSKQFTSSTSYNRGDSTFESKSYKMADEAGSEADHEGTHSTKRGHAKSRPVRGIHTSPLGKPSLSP", "T1 sequence (P02675 45-491 limits assumed)": "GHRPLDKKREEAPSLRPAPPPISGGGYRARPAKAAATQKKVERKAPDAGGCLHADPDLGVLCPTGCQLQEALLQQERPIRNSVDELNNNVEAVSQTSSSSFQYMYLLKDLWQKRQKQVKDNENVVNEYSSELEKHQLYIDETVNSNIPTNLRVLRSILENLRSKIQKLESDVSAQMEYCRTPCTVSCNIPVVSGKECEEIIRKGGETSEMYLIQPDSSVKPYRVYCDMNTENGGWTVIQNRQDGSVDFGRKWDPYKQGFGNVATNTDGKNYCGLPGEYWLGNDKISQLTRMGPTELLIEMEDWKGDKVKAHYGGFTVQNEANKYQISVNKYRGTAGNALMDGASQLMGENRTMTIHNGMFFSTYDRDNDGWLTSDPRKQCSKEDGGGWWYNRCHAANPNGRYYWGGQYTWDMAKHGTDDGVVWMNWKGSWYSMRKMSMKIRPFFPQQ", "T1 sequence (P02679 27-437 isoform P02679-2 limits assumed)": "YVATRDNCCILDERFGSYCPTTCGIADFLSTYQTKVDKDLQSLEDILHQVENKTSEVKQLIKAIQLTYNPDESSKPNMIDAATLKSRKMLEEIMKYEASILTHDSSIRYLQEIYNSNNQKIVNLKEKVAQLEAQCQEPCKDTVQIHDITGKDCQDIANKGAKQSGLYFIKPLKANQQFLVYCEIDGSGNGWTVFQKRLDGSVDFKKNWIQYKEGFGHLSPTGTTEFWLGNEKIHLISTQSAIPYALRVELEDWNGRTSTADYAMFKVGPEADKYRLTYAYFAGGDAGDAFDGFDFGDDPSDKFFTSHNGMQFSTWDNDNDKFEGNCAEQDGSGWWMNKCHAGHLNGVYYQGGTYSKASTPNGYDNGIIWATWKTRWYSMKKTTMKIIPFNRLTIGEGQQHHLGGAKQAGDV", "test": "Turbidity analysis of fibrin polymerization (system not specified)", "format": "biochemical", "conditions": "applicant's own experiments", "source_text": "Furthermore, because of electro neutrality of the declared calixarene-145 molecule, it may be more suitable for injection to a living organism as an inhibitor of fibrin polymerization and the process of blood clotting, as well."}, "[2]": {"target": "T1, fibrin polymerization", "conditions": "literature values (refs [6], [2]); turbidity analysis; cited from earlier work"}}, "note": "pIC50: −log10 of the molar value. Like-named read-outs stand apart in the source and are kept apart here.", "data": [{"smiles": "N=C(N)NCCC[C@H](NC(=O)[C@@H]1CCCN1C(=O)CN)C(=O)N1CCC[C@H]1C(=O)O", "note": "[Gly-Pro-Arg-Pro, reference compound]", "values": [{"measurement": "pIC50", "setting": "[1]", "value": 4.30}, {"measurement": "pIC50", "setting": "[2]", "value": 4.07}]}]}
